From patent US20110002953A1, “USE OF IMMIDAZOQUINOLINAMINES AS ADJUVANTS IN DNA VACCINATION” (priority 2000, published 2011)

System: ovalbumin-specific CD4+ T cells
Experiment: Proliferation (tritiated thymidine uptake) of ovalbumin-specific CD4+ T cells from lymph nodes after pVAC1.OVA vaccination, adoptive transfer model
Type: in vivo, Balb/c mice
Method: Splenocytes were prepared as in example 1 above.
To measure the clonal expansion of CD4+ T cells following immunisation, proliferation of ovalbumin-specific T cells following re-challenge in vitro with cognate ovalbumin peptide, was assessed in lymph node preparations collected 3 days after immunisation.

## CC(C)Cn1cnc2c(N)nc3ccccc3c21 [imiquimod, 1-(2-methylpropyl)-1H-imidazo[4,5-c]quinolin-4-amine]
Empty vector pVAC1, imiquimod 30 mg/kg
  proliferation, control plasmid (pVAC1) + imiquimod versus vehicle: No difference
Imiquimod 30 mg/kg, lymph nodes 3 days after immunisation, re-challenge in vitro with ovalbumin peptide
  proliferation, pVAC1.OVA + imiquimod compared with pVAC1.OVA + vehicle: more than twice
In words
  clonal expansion of CD4 T cells in vivo (FIG. 2): increases
